B1: ADC-46 (conjugate)
heavy: EVQLVQSGAEVKKPGSSVKVSCKASGYTITDSNIHWVRQAPGQSLEWIGYIYPYNGGTDYNQKFKNRATLTVDNPTNTAYMELSSLRSEDTAFYYCVNGNPWLAYWGQGTLVTVSSASTKGPSVFPLAPSSKSTSGGTAALGCLVKDYFPEPVTVSWNSGALTSGVHTFPAVLQSSGLYSLSSVVTVPSSSLGTQTYICNVNHKPSNTKVDKRV[human IgG1 Fc not given here]
light: DIQLTQSPSTLSASVGDRVTITCRASESLDNYGIRFLTWFQQKPGKAPKLLMYAASNQGSGVPSRFSGSGSGTEFTLTISSLQPDDFATYYCQQTKEVPWSFGQGTKVEVKRTVAAPSVFIFPPSDEQLKSGTASVVCLLNNFYPREAKVQWKVDNALQSGNSQESVTEQDSKDSTYSLSSTLTLSKADYEKHKVYACEVTHQGLSSPVCTKSFNRGEC
B2: ADC-47 (conjugate)
heavy: B1 heavy
light: B1 light
B3: ADC-48 (conjugate)
heavy: B1 heavy
light: B1 light

Amino acid sequences for entries named in this document (tags omitted). Residues count along the entry.
UniProt P20138, 18-364: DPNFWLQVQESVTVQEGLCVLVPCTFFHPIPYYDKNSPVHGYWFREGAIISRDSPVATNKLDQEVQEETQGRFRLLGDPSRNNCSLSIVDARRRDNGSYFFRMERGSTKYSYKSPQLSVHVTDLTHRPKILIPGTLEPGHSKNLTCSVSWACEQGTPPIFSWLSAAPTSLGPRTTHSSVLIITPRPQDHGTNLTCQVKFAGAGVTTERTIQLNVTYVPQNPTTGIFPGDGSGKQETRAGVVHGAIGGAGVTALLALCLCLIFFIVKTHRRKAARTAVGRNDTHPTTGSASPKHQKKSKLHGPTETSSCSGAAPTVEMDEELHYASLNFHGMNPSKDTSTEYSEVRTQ

Columns and labels:
[1] = Determination of monomer rate by SEC-HPLC; type: physicochemical
Procedure: Example 106: Determination of monomer rate by method SEC-HPLC
Determination of monomer rate method: using SEC-HPLC Column: Biocore SEC-300 5 µm, 4.6×300 mm Manufacturer: NanoChrom, Item No.: B213-050030-04630S Mobile phase: 50 mM PB+300 mM NaCl+200 mM Arg+5% IPA, pH=6.5 Table 1: Methodological parameters

[2] = for DAR, Incubate Day 0 / DAR, Incubate Day 3 / DAR, Incubate Day 7: IgG-free human plasma, ADC 0.6 mg/mL; for DAR, Incubate Day 0: 0 days, then extraction; for DAR, Incubate Day 3 / DAR, Incubate Day 7: 37°C; for DAR, Incubate Day 3: 3 days; for DAR, Incubate Day 7: 7 days; for DAR, Unincubated Extract: purification and extraction without incubation with plasma; for DAR, Unincubated No Extract: stability at 4°C for 0 days, no plasma incubation, no extraction
Procedure: Example 109: Plasma Stability Assay
A mixture of ADC and IgG-free human plasma was prepared to a final concentration of ADC of 0.6 mg/mL and placed in a water bath in a 37°C incubator for incubation. The incubation time was set to 0 days, 3 days, and 7 days. At the same time, unincubated and unextracted controls and unincubated and extracted controls were set. The incubated samples were purified and extracted, and the drug-antibody ratio DAR was measured to reflect the stability of ADC in human plasma.

[3] = biological target: recombinant human CD33 protein (Homo sapiens, UniProt P20138); test: ELISA binding of antibody-drug conjugates to recombinant human CD33 protein; conditions: CD33 coated at 0.5 µg/mL, statement in words
Procedure: Example 110: ELISA to detect the binding of antibody-drug conjugates to recombinant human CD33 protein
The binding ability of antibodies to antigens can be preliminarily determined by ELISA. In the present invention, the recombinant human CD33 protein was fixed on the enzyme strip, and a series of CD33 antibodies with a concentration gradient were added for detection. • 1. Coating: Dilute CD33 to 0.5 µg/mL with 1×PBS, 100 µL per well, and coat overnight at 4°C. • 2. Washing: Wash the plate 3 times with washing buffer (1×PBS+0.05%Tween20), 200 µL per well, and let stand for 1 min each time. • 3. Blocking: After patting the washing buffer dry for the third time, add blocking buffer (1×PBS+0.05%Tween20+1% BSA), 200 µL per well, and block at 37°C for 1 hour. • 4. Washing: Wash the plate 3 times with washing buffer, 200 µL per well, and let stand for 1 min each time. • 5. Loading of primary antibody: dilute the antibody-drug conjugate from 2 µg/mL in a 3-fold gradient with sample diluent (1×PBS+0.05%Tween20+1% BSA); wash the plate 3 times with plate washing buffer, 200 µL per well, and let stand for 1 min each time. • 6. Loading of secondary antibody: dilute Solarbio's rabbit anti-human antibody 1:10000 to 100 µL per well with analysis buffer (1×PBS+0.05%Tween20+1% BSA), and let stand for 1 hour at 37°C. • 7. Washing: Wash the plate 3 times with plate washing buffer, 200 µL per well, and let stand for 1 min each time. • 8. Reading: Add TMB colorimetric solution (50 µL per well) and stop the color development after 7 min by adding 2 M H2SO4 (50 µL per well). Read the plate at 450 nm using an ELISA reader. […] Example 111: In vitro efficacy detection of antibody-drug conjugates.

HL-60 cells = test: In vitro efficacy of ADCs (Example 111), HL-60; type: cell-based, human; conditions: treatment for 5 days, Alamar Blue or MTS
Procedure: (§1) In the present invention, various human tumor cell lines (HL-60, HEL92.1.7, TF-1, MV4-11, MOLM-13, U937 and CMK) were used as experimental models to evaluate the in vitro efficacy of ADC drugs. A certain number of tumor cell lines were inoculated in a 96-well plate, and gradient dilutions of the test antibody and the corresponding ADC drug were added to the cells. After treatment for 5 days, Alamar Blue or MTS was used to detect cell viability, and the inhibitory effect of the test antibody and ADC on the tumor cell line was evaluated by calculating IC50. The initial concentration of the antibody drug was 500 nM, the dilution multiple was 7 times, a total of 8 concentration points, and the treatment lasted for 5 days. The final algorithm was based on the survival rate = (experimental group-blank)/(control group-blank group) × 100%, and then the half-maximal inhibitory concentration (IC50) was calculated using Graph Pad Prism to fit the curve.

HEL92.1.7 cells = test: In vitro efficacy of ADCs (Example 111), HEL92.1.7; type: cell-based, human; conditions: treatment for 5 days, Alamar Blue or MTS
Procedure: as §1

TF-1 cells = test: In vitro efficacy of ADCs (Example 111), TF-1; type: cell-based, human; conditions: treatment for 5 days, Alamar Blue or MTS
Procedure: as §1

MV4-11 cells = test: In vitro efficacy of ADCs (Example 111), MV4-11; type: cell-based, human; conditions: treatment for 5 days, Alamar Blue or MTS
Procedure: as §1

MOLM-13 cells = test: In vitro efficacy of ADCs (Example 111), MOLM-13; type: cell-based, human; conditions: treatment for 5 days, Alamar Blue or MTS
Procedure: as §1

U937 cells = test: In vitro efficacy of ADCs (Example 111), U937; type: cell-based, human; conditions: treatment for 5 days, Alamar Blue or MTS
Procedure: as §1

CMK cells = test: In vitro efficacy of ADCs (Example 111), CMK; type: cell-based, human; conditions: treatment for 5 days, Alamar Blue or MTS
Procedure: as §1

Row | Molecule | Degradation % [1] [%] | DAR, Incubate Day 0 [2] | DAR, Incubate Day 3 [2] | DAR, Incubate Day 7 [2] | DAR, Unincubated Extract [2] | DAR, Unincubated No Extract [2] | affinity to CD33 antigen compared with the naked antibody (EC50) [3] | IC50 (HL-60 cells) [nM] | IC50 (HEL92.1.7 cells) [nM] | IC50 (TF-1 cells) [nM] | IC50 (MV4-11 cells) [nM] | IC50 (MOLM-13 cells) [nM] | IC50 (U937 cells) [nM] | IC50 (CMK cells) [nM]
1 | B1 | 0.000 | 8.49 | 8.46 | 8.32 | 8.46 | 8.56 | maintained similar affinity to the naked antibody |  |  |  |  |  |  | 
2 | B2 | 0.000 | 8.24 | 8.16 | 8.2 | 8.17 | 8.32 | maintained similar affinity to the naked antibody | 2.76 | 1.31 | 0.13 | 0.49 | 0.13 | 7.64 | 7.05
3 | B3 | 0.000 | 7.88 | 7.65 | 7.29 | 7.91 | 8.01 | maintained similar affinity to the naked antibody | 20.5 | 20.2 | 0.75 | 0.84 | 0.06 | 177 | 60.1
